AlphaSeq binding of Ab-95 light chain variants to a spike HR2 peptide

Values reported by Engelhart et al. 2022, doi:10.1038/s41597-022-01779-4 (FLAb copy).

Target peptide (SARS-CoV-2 spike, HR2 region): PDVDLGDISGINAS

The variants keep the heavy chain, the linker and the frameworks of Ab-95 (scFv order VH, a 15-residue (Gly4Ser)3 linker, VL).
VH: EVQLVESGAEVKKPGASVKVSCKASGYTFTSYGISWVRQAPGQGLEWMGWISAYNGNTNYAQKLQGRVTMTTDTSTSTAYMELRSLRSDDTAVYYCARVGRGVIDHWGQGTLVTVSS
VL: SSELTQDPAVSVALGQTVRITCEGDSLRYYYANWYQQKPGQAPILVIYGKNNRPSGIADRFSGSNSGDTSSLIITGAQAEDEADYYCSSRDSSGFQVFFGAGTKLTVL

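AAYL52 was designed without a model: most single CDR substitutions and a random sample of double and triple ones. AlphaSeq pools MATa yeast showing the antibodies with MATalpha yeast showing the peptide. Mating (16 h, 30 °C) was followed by selection of diploids and sequencing of their barcodes. Read counts were normalised to the haploid input and turned into Kd by a linear fit to BCL2-family pairs of known affinity, for each replicate. Each pool was mated in three replicate cultures.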

Positions count from residue 1 of the parent VL; N33S puts S in place of N.
Affinities are written as log10 Kd with Kd in nM; a lower number is a better binder.
Averages over replicates are reported, and they cover detected replicates only.
Where no diploid with the target was found in any replicate, the entry reads "nd": below detection, most likely a poor binder, though not proof of it.

N33S+N52E+S92I: 1.98 (3 of 3 replicates).
G49S+N52G+D91A: 3.41 (3 of 3 replicates).
E23K+R53Y+Q96N: 2.87 (3 of 3 replicates).
Y31R+G49F+F95W: nd (0 of 3 replicates).
Y29G+N52C+R53L: 2.95 (3 of 3 replicates).
R28A+K50H+S89M: 3.17 (3 of 3 replicates).
R28Q+G49F+S55P: 3.83 (1 of 3 replicates).
N52K+D91P+F95V: 4.44 (2 of 3 replicates).
G49P+S88G+D91K: nd (0 of 3 replicates).
Y29V+R53V+F98Q: 2.94 (3 of 3 replicates).
Y30T+N33H+K50V: 3.42 (2 of 3 replicates).
Y29N+S88V+G94L: 1.68 (3 of 3 replicates).
D25T+D91P+V97P: 3.77 (3 of 3 replicates).
G49D+D91N+S93C: nd (0 of 3 replicates).
E23S+Y30A+Y31F: 0.72 (3 of 3 replicates).
G24N+S26Q+S92K: 3.52 (2 of 3 replicates).
L27S+Y29M+S88G: 4.82 (2 of 3 replicates).
K50N+N52F: 2.73 (3 of 3 replicates).
Y29G+N52I+S89G: 1.89 (3 of 3 replicates).
G24M+A32N+S88L: 3.29 (2 of 3 replicates).
D25M+R53N+S93N: nd (0 of 3 replicates).
R53Y+S55F+F95I: 4.36 (2 of 3 replicates).
K50Q+R90H+D91K: nd (0 of 3 replicates).
E23Y+K50G+S92L: 2.87 (3 of 3 replicates).
K50A+N52W+D91S: 2.69 (3 of 3 replicates).
N33C+S88E+R90H: 4.89 (1 of 3 replicates).
G49C+S89K+F95C: 5.63 (1 of 3 replicates).
N33F+N51Q+S55Y: 4.43 (2 of 3 replicates).
Y29W+S92F: 2.51 (3 of 3 replicates).
S93D+Q96K+F98R: nd (0 of 3 replicates).
Y29A+R53M+S89H: 3.87 (1 of 3 replicates).
D25I+Y30Q+N33R: 2.57 (3 of 3 replicates).
K50T+N52P+S55N: 4.21 (3 of 3 replicates).
S26F+N33V+R53I: 2.96 (1 of 3 replicates).
S26V+Y31V+N33V: nd (0 of 3 replicates).
D25P+N51I: 3.65 (2 of 3 replicates).

Picked from the list: the 4 lowest averages where every replicate gave a value.

{"changes": "E23S+Y30A+Y31F", "log10 Kd (nM), mean": "0.72", "detected": "3 of 3"}
{"changes": "Y29N+S88V+G94L", "log10 Kd (nM), mean": "1.68", "detected": "3 of 3"}
{"changes": "Y29G+N52I+S89G", "log10 Kd (nM), mean": "1.89", "detected": "3 of 3"}
{"changes": "N33S+N52E+S92I", "log10 Kd (nM), mean": "1.98", "detected": "3 of 3"}

Parent in this assay: reference entry 2.31, copy in this library 2.25.
Empty control strains, which show no peptide, gave a signal in 28% of pairings with library AAYL52; the median was 3.91 and 95% of these signals were weaker than 2.90. No background was subtracted.